Assay results from patent US20230071840A1, “HETEROCYCLIC GLP-1 AGONISTS” (Gasherbrum Bio, Inc., priority 2020, published 2023).

Chains of the proteins cited; added tags and fusions are not shown. Residues count along the entry.
UniProt P43220, 24-463 limits assumed: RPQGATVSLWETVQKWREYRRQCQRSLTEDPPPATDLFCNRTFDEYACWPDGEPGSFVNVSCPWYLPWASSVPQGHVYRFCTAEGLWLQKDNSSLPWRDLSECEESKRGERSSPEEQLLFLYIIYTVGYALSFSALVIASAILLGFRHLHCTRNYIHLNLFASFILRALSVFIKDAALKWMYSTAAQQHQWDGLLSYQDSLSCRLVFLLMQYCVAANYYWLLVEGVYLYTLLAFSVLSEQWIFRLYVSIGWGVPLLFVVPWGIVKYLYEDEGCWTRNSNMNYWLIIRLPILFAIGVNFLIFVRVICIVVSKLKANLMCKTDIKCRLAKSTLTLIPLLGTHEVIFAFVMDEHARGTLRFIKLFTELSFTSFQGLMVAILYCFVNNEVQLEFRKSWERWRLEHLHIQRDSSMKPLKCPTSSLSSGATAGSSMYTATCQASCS

Molecular target: GLP-1 Receptor (Homo sapiens, UniProt P43220)
Experiment: GLP-1R agonist cAMP stimulation assay (HEK293/GLP1R/CRE-LUC cells, cAMP dynamic 2 kit)
Assay type: cell-based
Conditions: HEK293/CRE-Luc cell line stably expressing the GLP-1 Receptor; 30 min incubation at 37° C.

## O=C(O)c1ccc2nc(CN3CCC(c4c[nH]c5ccc(Cc6ccc(Cl)cc6F)nc45)CC3)n(C[C@@H]3CCO3)c2n1
  GLP1R cAMP Stimulation DR: pEC50: 8.3
